Experimental data from PubChem BioAssay AID652106 (National Center for Advancing Translational Sciences (NCATS), 2013).
The entries are a selection whose mix differs from that of the whole data set. Active and inactive are the calls of the source. The call rests on the fitted dose curve; in most records, active means well fitted activation curve with a large enough effect; inconclusive means small, poorly fitted or top-dose-only effect; inactive means no such curve, though single readings can be large or run the other way.

Experiment: qHTS of alpha-syn Inhibitors; further: % of control where 0% means no effect; nearly all actives have a fitted effect of over 65% in size
Settings: Yeast expressing alpha-synuclein, BacTiter-Glo, 24 h; at 46.1 µM (top of the series)
Text: The goal of this project is to identify new chemical probes capable of reversing the toxicity associated with the Parkinson disease-related protein, alpha-synuclein. Compounds will be selected on their ability to restore growth in yeast cells expressing toxic levels of alpha-synuclein. These compounds will provide a complementary approach to deciphering the tangled mechanisms of toxicity and protection that we have uncovered through genome-wide genetic screens and are beginning to uncover in a large-scale proteomics analysis with mass spectroscopy. To this end, a miniaturized assay was developed to be screened against the Molecular Libraries Small Molecule Repository (MLSMR) to discover alpha-synuclein inhibitors. Please note that in the set-up this yeast-based assay compounds that inhibit as alpha-syn, have a read-out as activators. NIH Chemical Genomics Center [NCGC] NIH Molecular Libraries Probe Centers Network [MLPCN] MLPCN Grant: NS060957 Assay Submitter (PI): Susan Lindquist, Whitehead Institute/MIT
Dispense 2.5 microL yeast galactose medium per 1536-well plate, pin compound, dispense 2.5 microL alpha-synuclein expressing yeast in galactose medium at OD600=0.02 (pregrown in raffinose medium to mid-log phase) per well, incubate for 24 hr at 30 deg C, and cell growth will be measured using 5 microL of Bactiter/Glo reagent to entire plate and read using Luminescence Protocol in ViewLux.

Structure (SMILES) | growth rescue (activation)
Cc1ccc(NP(C)(=O)Oc2ccccc2)c(C)c1 (configuration not stated) | inactive: 11.1%
COc1ccccc1OP(C)(=O)Nc1ccc(C)cc1 (configuration not stated) | inactive: -3.76%
CCOC(=O)c1ccc(NP(C)(=O)Oc2ccccc2)cc1 (configuration not stated) | inactive: 0.0555%
Cc1cc(C)cc(OP(C)(N)=O)c1 (configuration not stated) | inactive: -3.75%
COc1ccc(OP(C)(=O)Nc2cccc(F)c2)cc1 (configuration not stated) | inactive: -9.84%
COc1ccccc1OP(C)(=O)Nc1cc(Cl)ccc1C (configuration not stated) | inactive: -5.14%
CCN(CC)CCCOC(=O)C(O)(c1ccccc1)c1ccccc1 | inactive: 0.0512%
COc1ccccc1-c1ccccn1.O=[N+]([O-])c1cc([N+](=O)[O-])c(O)c([N+](=O)[O-])c1 | inactive: -4.41%
CP(=O)(Oc1ccccc1)OC(c1ccccc1)C(F)(F)F (configuration not stated) | inactive: 6.24%
Cc1cccc(C)c1OP(C)(=O)Nc1ccc(SC(F)(F)F)cc1 (configuration not stated) | inactive: 3.29%
CP(=O)(Nc1ccc(SC(F)(F)F)cc1)Oc1ccc(Cl)cc1 (configuration not stated) | inactive: -14%
Cc1cc(C)cc(OP(C)(=O)Nc2ccc(SC(F)(F)F)cc2)c1 (configuration not stated) | inactive: 4.91%
CCc1ccc(OP(C)(=O)N2CCN(c3ccc([N+](=O)[O-])cc3)CC2)cc1 (configuration not stated) | inactive: 0.875%
CP(=O)(NC(=O)Nc1ccccc1)Oc1ccccc1 (configuration not stated) | inactive: -8.57%
CCOC(=O)c1ccc(NP(C)(=O)Oc2ccc(OC)cc2)cc1 (configuration not stated) | inactive: 0.359%
O=[N+]([O-])c1cc([N+](=O)[O-])c(O)c([N+](=O)[O-])c1.c1ccc(Oc2ccncc2)cc1 | inactive: -2.03%
CCOP(C)(=S)SCC(=O)NC(C)C(=O)O (configuration not stated) | inactive: -12.8%
CP(=O)(Nc1ccccn1)Oc1ccc(Cl)cc1 (configuration not stated) | inactive: -5.75%
CP(=S)(Nn1cnnc1)Oc1ccccc1 (configuration not stated) | inactive: 0.0409%
CP(=O)(Nc1ccccc1Br)Oc1ccccc1 (configuration not stated) | inactive: -0.355%
COc1ccccc1OP(C)(=O)Nc1ccccc1 (configuration not stated) | inactive: -6.69%
Nc1ccc2c(ccc3cccnc32)n1.O=[N+]([O-])c1cc([N+](=O)[O-])c(O)c([N+](=O)[O-])c1 | inactive: 5.92%
CCOC(=O)c1ccc(NP(C)(=O)Oc2ccc(Cl)cc2)cc1 (configuration not stated) | inactive: 14.8%

Structure (SMILES) | growth rescue (activation)
CP(=O)(OC12CC3CC(CC(C3)C1)C2)OC12CC3CC(CC(C3)C1)C2 | inactive: 20.6%
COc1ccc(OP(C)(=O)Nc2ccc(Br)cc2)cc1 (configuration not stated) | inactive: 17.1%
CCN(CC)CC(O)COC(=O)C(O)(c1ccccc1)C1CCCCC1 (configuration not stated) | inactive: -2.67%
N#[O+].[C-]#N.[C-]#N.[C-]#N.[C-]#N.[C-]#N.[Fe+2].[Na+].[Na+] | inactive: 0.826%
O=C(OCCCN1CCCC1)C(O)(c1ccccc1)C1CCCCC1 (configuration not stated) | inactive: -5.66%
COc1ccccc1OP(C)(=O)Nc1c(C)n(C)n(-c2ccccc2)c1=O (configuration not stated) | inactive: -0.481%
CCc1ccc(OP(C)(=O)Nc2cccnc2)cc1 (configuration not stated) | inactive: -2.48%
CP(=O)(Oc1ccccc1)N1CCOC1=O (configuration not stated) | inactive: -2.91%
CC(C)(C)c1ccc(OP(C)(=O)O)cc1 | inactive: 4.52%
COc1ccccc1OP(C)(=O)Nc1ccccc1Br (configuration not stated) | inactive: -1.11%
CP(=O)(Nc1ccc(Cl)cc1)Oc1ccc(F)cc1 (configuration not stated) | inactive: -0.607%
CN(C)C(=O)c1c([N+](=O)[O-])cc([N+](=O)[O-])cc1[N+](=O)[O-] | inactive: -3.56%
COc1ccccc1OP(C)(=O)Nc1ccc(Br)cc1 (configuration not stated) | inactive: 5.73%
COc1ccc(OP(C)(=O)Nc2ccccn2)cc1 (configuration not stated) | inactive: -0.779%
CN(C)CCOC(=O)C(O)(c1ccccc1)C1CCCC1 (configuration not stated) | inactive: 2.62%
O=[N+]([O-])c1cc([N+](=O)[O-])c(Nc2ccccn2)c([N+](=O)[O-])c1 | inactive: -3.46%
Cc1c(NP(C)(=O)Oc2ccc(C(C)C)cc2)c(=O)n(-c2ccccc2)n1C (configuration not stated) | inactive: 0.283%
COc1ccccc1OP(C)(=O)Nc1ccc(C)cc1C (configuration not stated) | inactive: -1.29%
CP(=O)(Nc1ccccn1)Oc1ccccc1 (configuration not stated) | inactive: -6.15%
CCc1ccc(OP(C)(=O)O)cc1 | inactive: -0.149%
Cc1cc(C)cc(OP(C)(=O)Nc2cccc(C(F)(F)F)c2)c1 (configuration not stated) | inactive: 3.01%
COc1ccccc1OP(C)(=O)Nc1ccc(C)c(C)c1 (configuration not stated) | inactive: -4.81%
COc1ccc(OP(C)(=O)Nc2ccccc2Br)cc1 (configuration not stated) | inactive: -0.463%

Structure (SMILES) | growth rescue (activation)
CP(=O)(OCCOc1ccccc1)OCCOc1ccccc1 | inactive: 6.22%
CCCCCCCCCCCCCCCC1C[N+](C)(C)CCOP(C)(=O)O1 (configuration not stated) | inactive: -53.5%
CP(=O)(Nc1ccc(Cl)cc1Cl)Oc1ccccc1 (configuration not stated) | inactive: 8.61%
CCOC(=O)c1ccc(NP(C)(=O)Oc2ccc(F)cc2)cc1 (configuration not stated) | inactive: 3.24%
COc1ccc(OP(C)(=O)Nc2ccc(SC(F)(F)F)cc2)cc1 (configuration not stated) | inactive: 2.72%
Cc1c([N+](=O)[O-])cc([N+](=O)[O-])c(Br)c1[N+](=O)[O-] | inactive: 0.708%
CCN(CC)CCCOC(=O)C(O)(c1ccccc1)C1CCCCC1 (configuration not stated) | inactive: -0.0417%
CP(=O)(Nc1ccccc1)Oc1ccc(F)cc1 (configuration not stated) | inactive: 0.267%
CCCCCOc1ccc(NP(C)(=O)Oc2ccc(Cl)cc2Cl)cc1 (configuration not stated) | inactive: 0.689%
CP(=O)(Nc1ccccc1F)Oc1ccccc1 (configuration not stated) | inactive: -4.7%
O=C(OCCN1CCN(CCOCc2ccccc2)CC1)C(O)(c1ccccc1)c1ccccc1 | inactive: 20.2%
CP(=O)(Nc1ccc(SC(F)(F)F)cc1)Oc1ccc(F)cc1 (configuration not stated) | inactive: -2.51%
CCOP(C)(=S)SCC(=O)NC(C)(CC)C(=O)O (configuration not stated) | inactive: 1.13%
CP(=O)(Nc1ccc2c(c1)OCCO2)Oc1ccccc1 (configuration not stated) | inactive: 4.12%
Cc1ccccc1NP(C)(=O)Nc1ccccc1C | inactive: -0.742%
COc1ccc(OP(C)(=O)Nc2cccc(Br)c2)cc1 (configuration not stated) | inactive: 4.05%
CN(C)CCOC(=O)C(O)(c1ccccc1)C1CCCCC1 (configuration not stated) | inactive: 6.51%
COc1ccc(NP(C)(=O)Oc2ccccc2OC)cc1 (configuration not stated) | inactive: 6%
O=[N+]([O-])c1ccc(OP2(=O)COCCO2)cc1 (configuration not stated) | inactive: -4.44%
Cc1cc(-c2cccc3ccccc23)c(C)cn1.O=[N+]([O-])c1cc([N+](=O)[O-])c(O)c([N+](=O)[O-])c1 | inactive: -4.78%
Cc1c(C(c2ccc3c(c2)OCO3)c2c(C)n(C)n(-c3ccccc3)c2=O)c(=O)n(-c2ccccc2)n1C.O=[N+]([O-])c1cc([N+](=O)[O-])c(O)c([N+](=O)[O-])c1 | inactive: 1.66%
